Measured values from patent US9572315B2, “ALS inhibitor herbicide tolerant B. napus mutants” (BAYER INTELLECTUAL PROPERTY GMBH, priority 2011, dated 2017).

Experiments:
[1] = system: non-mutagenized FM101 tissue; conditions: 10^−4 M in selective medium
[2] = system: B. napus wild type line SR002201 (NCIMB 41813); assay: ALS-inhibitor herbicide injury on B. napus, greenhouse spray trial, visual scoring; assay type: in vivo; conditions: Brassica napus, 336 h, read-out: Herbicide injury on B. napus SR002201, 15 g a.i./ha, spray at BBCH 12-13 with Mero 1 l/ha, visual scoring 14 days after application, 0%=no damage, 100%=all plants dead

SMILES: COc1cc(OC)nc(NC(=O)[N-]S(=O)(=O)c2ncccc2C2=NOCCO2)n1.[Na+] [Compound of formula (I)]
- growth of non-mutagenized FM101 tissue on selective medium [1]: prevented the growth
- pest or weed control at 15 g/ha [2]: > 90%
